Literature values as cited in patent US20140242590A1, “FLT3 MUTATIONS ASSOCIATED WITH DRUG RESISTANCE IN AML PATIENTS HAVING ACTIVATING MUTATIONS IN FLT3” (THE REGENTS OF THE UNIVERSITY OF CALIFORNIA, priority 2011, published 2014).

System: relapsed/refractory FLT3-ITD+ AML patients
Conditions: interim analysis of 53 patients evaluable for efficacy; cited from earlier work

CC(C)(C)c1cc(NC(=O)Nc2ccc(-c3cn4c(n3)sc3cc(OCCN5CCOCC5)ccc34)cc2)no1.Cl.Cl [AC220, N-(5-tert-butyl-isoxazol-3-yl)-N′-{4-[7-(2-morpholin-4-yl-ethoxy)imidazo[2,1-b][1,3]benzothiazol-2-yl]phenyl}urea dihydrochloride]
composite complete remission (<5 percent bone marrow blasts) rate: 45%
